System: CCC/C=C/C=O
Assay: purified protein
Details: pH 7.2; 25.0 °C

OPR3 (12-oxophytodienoic acid reductase 3) (Arabidopsis thaliana)
Km: 4.36 ± 0.318 mM

From doi:10.1101/820381v1 (biorxiv, 2019)
